# Antibody variant affinities, Ab-14 heavy chain, assay 1

Target: peptide PDVDLGDISGINAS, taken from heptad repeat 2 (HR2) of SARS-CoV-2 spike.

Each scFv is VH, the linker GGGGSGGGGSGGGGS, VL, as in the parent Ab-14, and differs from it in the CDRs of the heavy chain only.
VH: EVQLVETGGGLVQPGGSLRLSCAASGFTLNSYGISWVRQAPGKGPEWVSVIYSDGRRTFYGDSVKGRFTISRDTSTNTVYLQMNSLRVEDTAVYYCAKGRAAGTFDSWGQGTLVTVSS
VL: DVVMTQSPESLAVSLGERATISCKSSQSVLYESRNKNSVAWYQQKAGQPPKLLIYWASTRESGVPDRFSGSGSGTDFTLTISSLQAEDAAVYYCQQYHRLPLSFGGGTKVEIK

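The library (AAYL49) carries one to three amino acid substitutions per variant, with no insertions or deletions. Affinity was read by AlphaSeq, a pooled yeast mating assay with surface-displayed partners. After mating in shaken culture at 30 °C for 16 h, diploids were selected and their barcode pairs sequenced. The ratio of observed to expected reads was calibrated, replicate by replicate, on BCL2-family standards whose Kd was known from biolayer interferometry. Each pool was mated in three replicate cultures.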

Variants are written as CDR1, CDR2 and CDR3 of the heavy chain (limits as in the source). Parent: GFTLNSYGIS, VIYSDGRRTFYGDSVK, GRAAGTFDS.
All variants listed here change D106 of the VH, counted from its first residue.
Kd is apparent (estimated from mating counts) and averaged on the log scale over replicates with a signal. Smaller is tighter.
A pair that was not seen in any replicate is written "not detected"; this usually means weak binding, but a binder can also be missed.
Empty control strains, which show no peptide, gave a signal in 15% of pairings with library AAYL49; the median was 11 µM and 95% of these signals were weaker than 680 nM. No background was subtracted. The control count says in how many pairings with the empty strains this scFv gave a signal.
In this assay the parent's reference entry averaged 4.4 nM; its copy inside this library read 13 µM (one replicate of three).

| CDR-H1 | CDR-H2 | CDR-H3 | Kd | detected | signal with controls |
|---|---|---|---|---|---|
| GFTLNSLGIS | VIYSDGRRTFYGYSVK | GRAAGTFPS | 75 µM | 2/3 | 3/9 |
| GFTLNSYGIS | VIYSDGRRTFYRDSVK | GRATGTFCS | not detected | 0/3 | 0/9 |
| GFTLNSYGIS | VIYSDGRRTFYGDSVF | GRAAGTFLS | not detected | 0/3 | 1/9 |
| GFTLNSYGIS | VIYSDGRRTFYGDIVK | GRAAGTQKS | 2.4 µM | 3/3 | 2/9 |
| GFTLNSYGIS | YIYSDGRRTFYGDSVK | GRAAGTFNS | not detected | 0/3 | 0/9 |
| GFTLNSYGIS | VIYSDGRNTFYCDSVK | GRAAGTFMS | 1.2 µM | 1/3 | 3/9 |
| GFTLNSYGII | VDYSDGRRTFYGDSVK | GRAAGTFCS | 11 µM | 1/3 | 0/9 |
| GFTLNSYGIS | QIYSDGRQTFYGDSVK | GRAAGTFTS | not detected | 0/3 | 0/9 |
| GMTLNSYGIS | VIYSDGRRTFYGDSVK | GRAMGTFCS | 280 nM | 3/3 | 0/9 |
| GFTLNSYGIS | VIYSDGRRFFYGKSVK | GRAAGTFMS | not detected | 0/3 | 3/9 |
| GFTLNSYGIS | QIYSDGRRTFYGDGVK | GRAAGTFES | not detected | 0/3 | 1/9 |
| GFTLNSYGIS | VIYSYGERTFYGDSVK | GRAAGTFES | 1.6 µM | 1/3 | 1/9 |
| GFTLNSYGIS | SIYSDGHRTFYGDSVK | GRAAGTFRS | 940 nM | 1/3 | 5/9 |
| AFTLNSEGIS | VIYSDGRRTFYGDSVK | GRAAGTFHS | not detected | 0/3 | 1/9 |
| GFTLNSEGIS | VIYSDGRRTFYGDSVK | GRAAGTLFS | 22 µM | 1/3 | 0/9 |
| GFTRNSYGIS | MIYSDGRRTFYGDSVK | GRAAGTFFS | not detected | 0/3 | 1/9 |
| GFTLNSYGIS | VIYSDGRRTFYGDSKK | GRAAGTFIS | not detected | 0/3 | 2/9 |
| GFTGNSYGIS | VIYSDGRRTFYGDSVK | GRAIGTFHS | not detected | 0/3 | 0/9 |
| GFTLNSNGIS | VLYSDGRRTFYGDSVK | GRAAGTFQS | not detected | 0/3 | 2/9 |
| GFNLNSYGIF | VIYSDGRRTFYGDSVK | GRAAGTFHS | not detected | 0/3 | 0/9 |
| GFTLNSYKIS | VIYSDGRRTFYGDSVK | GRAAGTFWC | not detected | 0/3 | 1/9 |
| YFTLNSYGIS | VEYSDGRRTFYGDSVK | GRAAGTFMS | not detected | 0/3 | 0/9 |
| GFTLPSYGIS | VIYSDGRRTFYGDSVK | GRAAGTLQS | 44 µM | 3/3 | 4/9 |
| GFTLNSYGKS | VIYSDGRRTFYGDSVK | GRAAGTFSS | 220 µM | 3/3 | 5/9 |
| GFTLNSLGIS | NIYSDGRRTFYGDSVK | GRAAGTFFS | 31 µM | 2/3 | 4/9 |
| GFGLNSYGIS | VIYSDGPRTFYGDSVK | GRAAGTFAS | 6.1 µM | 1/3 | 2/9 |
| GFTLNSYGIS | VIYSDGRRRFNGDSVK | GRAAGTFTS | 3.1 µM | 1/3 | 1/9 |
| QFTLNSYGIS | VIYSDGRRTFYGDSVK | GRAAGTNVS | 5.1 µM | 1/3 | 2/9 |
| GFTLNSYGIS | VIYSMGRRTFYGDSVK | GRAANTFIS | 12 µM | 1/3 | 2/9 |
| GFTLNSYGIS | VIYRDGRRTFYGDSAK | GRAAGTFCS | not detected | 0/3 | 1/9 |
| GFTLESYGIS | VIYSDGRRTFYGDSVK | GYAAGTFSS | 4.3 nM | 3/3 | 1/9 |
| GHVLNSYGIS | VIYSDGRRTFYGDSVK | GRAAGTFSS | not detected | 0/3 | 1/9 |
| GKTLNSYGIS | VIYSDYRRTFYGDSVK | GRAAGTFTS | 360 µM | 1/3 | 1/9 |
| GFTLSSYGIC | VIYSDGRRTFYGDSVK | GRAAGTFAS | not detected | 0/3 | 0/9 |
| GFTLNSYGIW | VIYSDGRRTFYGDSVK | GRAYGTFIS | not detected | 0/3 | 0/9 |
| GFTLNSYGIS | VIYSDGRRYFYGDSVK | GRAAGTFYS | 330 nM | 3/3 | 0/9 |
| GFTLNSYGHS | VIYSDGRRTFYGDSVK | GRAAPTFIS | 96 µM | 1/3 | 2/9 |
| GFTLNSYGIS | QIYSDGRRTFYGDSTK | GRAAGTFHS | not detected | 0/3 | 1/9 |
| GFTLNSYGIS | VIYSDGRRTFYHDSVK | GRAAGTFKF | 9.1 nM | 3/3 | 3/9 |
| GFTLNKYGIS | VIYSDGRRTFIGDSVK | GRAAGTFRS | 3.3 µM | 1/3 | 0/9 |
| GFTLNSYGIS | VIPSDGRRTFYGDSVK | GRAAGTMQS | 68 µM | 1/3 | 0/9 |
| GFTLNSYGIS | VIYSDGRLTFYGDSVP | GRAAGTFTS | not detected | 0/3 | 0/9 |
| EFTLNSYGIW | VIYSDGRRTFYGDSVK | GRAAGTFKS | not detected | 0/3 | 1/9 |
| GFTLNSSGIS | VIYSDGRRTFYGDSHK | GRAAGTFMS | 16 µM | 3/3 | 1/9 |
| GFTLNSYGIS | VIYSDGRSTFYGDSVK | GRDAGTFQS | 4.8 µM | 2/3 | 3/9 |
| GFTLNSYGIS | VIYSDGRRTFYGDSVK | GRAAGTFHH | 7.1 nM | 3/3 | 3/9 |
| GFTLNSYGIS | VIYSDGRRTFYGDSVI | GRAAGTYSS | not detected | 0/3 | 3/9 |
| GFTLNSYGIS | VIYSDGRRTFYGDSVS | GRAHGTFSS | 79 nM | 3/3 | 0/9 |
| GFTLNSYGIS | LIYSDGRRTFYPDSVK | GRAAGTFGS | 40 µM | 3/3 | 8/9 |
| GFTLNSYGIS | VIYSDGRRTFYGDSVQ | GLAAGTFFS | not detected | 0/3 | 0/9 |
| GFTLNEYGIS | VIYSDGRCTFYGDSVK | GRAAGTFHS | 1.3 mM | 1/3 | 1/9 |
| GFTLNSYGIS | VIYSDGRRTTYGDSVK | GRAAGTFNS | not detected | 0/3 | 0/9 |
| GFTLNSYGIS | VIYSWGRRTFYGDSVK | GKAAGTFYS | not detected | 0/3 | 0/9 |
| GFTLNSYGIS | VIYSDGRRTFYGDSVK | GRAAGAFWT | not detected | 0/3 | 0/9 |
| GFTLNSYGIS | VIYSDGGRTFYGDSVK | GRAAGEFMS | not detected | 0/3 | 0/9 |
| GFTLNSYRIS | VIYSDGRRTFYGVSVK | GRAAGTFKS | not detected | 0/3 | 4/9 |
| MFTLNSWGIS | VIYSDGRRTFYGDSVK | GRAAGTFPS | not detected | 0/3 | 0/9 |
| GFTLNSYGIS | VIYSFGRNTFYGDSVK | GRAAGTFQS | not detected | 0/3 | 0/9 |
| GFTLNSYGIS | VIYSDGRRTLYGDSVS | GRAAGTFPS | 480 µM | 1/3 | 1/9 |
| GFTLNSYGIS | VIYSDGRRTVYGDSVK | GRAAGTTFS | not detected | 0/3 | 1/9 |
| GFTLNVYGIS | DIYSDGRRTFYGDSVK | GRAAGTFRS | not detected | 0/3 | 0/9 |
| GFTLNSYGIS | VIYSDGCRTFYGDSVK | GRAAGTFIS | not detected | 0/3 | 0/9 |
| GFALNSYGIS | VIYSDGRRTFYGDPVK | GRAAGTFFS | 70 nM | 3/3 | 3/9 |
| GFTLNSYGIS | VIMSDGRRTFYGDSVK | WRAAGTFRS | not detected | 0/3 | 4/9 |
| GFTLNSYGIM | VIYSDGRRTFYGVSVK | GRAAGTFYS | not detected | 0/3 | 2/9 |
| GFTLNSYGIS | VIYSDGTRTFYGDSVK | GRAAGTFGS | 17 µM | 2/3 | 4/9 |
| GFTLNSYGWI | VIYSDGRRTFYGDSVK | GRAAGTFMS | not detected | 0/3 | 1/9 |
| GFTLNSYNIS | VIYSDGSRTFYGDSVK | GRAAGTFCS | not detected | 0/3 | 3/9 |
| GFTLNSYGIS | VIYSDGRRYFWGDSVK | GRAAGTFLS | 3.0 µM | 1/3 | 1/9 |
| GFTLNHYGIS | VIYSDGRRTFYGDSVK | GHAAGTFQS | 28 nM | 3/3 | 0/9 |
| GFTLNSYGIS | MIYSDGRRTFYGDSVK | GRAAGTFAS | 5.9 µM | 1/3 | 0/9 |
| GFTLSSYGIS | VIYSDGRRTFYGDSVK | GRAAGTFES | 1.8 nM | 3/3 | 1/9 |
| WFTLNSYGIS | VIYSDGRRTFYGDSVK | GRAAGTFCS | 3.7 µM | 2/3 | 2/9 |
| GFTLNSYGIS | VIYSDGRRTFYGESVG | GRAAGTFES | 8.7 µM | 2/3 | 3/9 |
| GFTLNSYGIS | VIYSDERRTFYADSVK | GRAAGTFWS | not detected | 0/3 | 1/9 |
| GFTLNSYGIS | VIYSDGRRTFYGDSVK | GRAAGTFES | 6.9 nM | 2/3 | 1/9 |
| GFTMNSYGIS | VIYSDGRYTFYGDSVK | GRAAGTFHS | 9.5 µM | 1/3 | 2/9 |
| GFTLNSYGIS | VIYSDGRRTFRHDSVK | GRAAGTFKS | 42 µM | 1/3 | 3/9 |

Again, the first 11 entries without any signal:

CDR-H1,CDR-H2,CDR-H3,Kd,detected,signal with controls
GFTLNSYGIS,VIYSDGRRTFYRDSVK,GRATGTFCS,not detected,0/3,0/9
GFTLNSYGIS,VIYSDGRRTFYGDSVF,GRAAGTFLS,not detected,0/3,1/9
GFTLNSYGIS,YIYSDGRRTFYGDSVK,GRAAGTFNS,not detected,0/3,0/9
GFTLNSYGIS,QIYSDGRQTFYGDSVK,GRAAGTFTS,not detected,0/3,0/9
GFTLNSYGIS,VIYSDGRRFFYGKSVK,GRAAGTFMS,not detected,0/3,3/9
GFTLNSYGIS,QIYSDGRRTFYGDGVK,GRAAGTFES,not detected,0/3,1/9
AFTLNSEGIS,VIYSDGRRTFYGDSVK,GRAAGTFHS,not detected,0/3,1/9
GFTRNSYGIS,MIYSDGRRTFYGDSVK,GRAAGTFFS,not detected,0/3,1/9
GFTLNSYGIS,VIYSDGRRTFYGDSKK,GRAAGTFIS,not detected,0/3,2/9
GFTGNSYGIS,VIYSDGRRTFYGDSVK,GRAIGTFHS,not detected,0/3,0/9
GFTLNSNGIS,VLYSDGRRTFYGDSVK,GRAAGTFQS,not detected,0/3,2/9

Reference: Engelhart et al. 2022, doi:10.1038/s41597-022-01779-4. File: FLAb, binding data.